Where “and” joins values, the source holds several entries; their conditions need not be identical. Identical values can stand only once.
Tests used:
[1] = In vitro metabolic stability in mouse kidney homogenate; type: in vitro ADME; conditions: mouse kidney homogenate 0.6 mg/ml protein (500 μl, 300 μg protein) + Krebs-Henseleit buffer pH 7.4, 0.1 mg/ml peptide, 37°C, 750 rpm, 0-120 min, HPLC-UV 215 nm
Method: (§1) Prior to use, the protein content of each homogenate was determined using the Pierce Modified Lowry Protein Assay method (Thermo Scientific) to generate a stock solution with a protein concentration of 0.6 mg/ml by dilution with Krebs-Henseleit buffer (pH 7.4, Sigma-Aldrich). […] After sampling, enzymatic activity was terminated by additional heat inactivation at 95°C for 5 min, followed by cooling the samples in an ice bath for 30 min. […] Therefore, a solid phase extraction (SPE) protocol using an Oasis® WCX μelution plate (Waters, Zellik, Belgium) was used prior to HPLC-UV analysis. In the Supporting Information, the protocol of the SPE extraction procedure is described (S1 Text). Blank control solutions were prepared as described above, but without adding the peptide. To confirm chemical stability and mass balance, control reference solutions without tissue homogenate or with a prior heat inactivation were analyzed as well. The HPLC-UV system consisted of a Waters Alliance 2695 separation module and a Waters 2996 photodiode array (PDA) detector (detection from 190-400 nm, quantification at 215 nm), fitted with Empower 2 software for data handling (Waters). […] Appropriate gradients for separation of the peptides and their metabolites were created by mixtures of water (0.1% trifluoroacetic acid m/V) and acetonitrile (0.1% trifluoroacetic acid m/V).

[2] = tested on: blood-brain barrier (BBB); test: Regional variation in brain influx (MTR, dissected brain regions); conditions: comparison of slopes (Kin), Prism 6, P threshold 0.05, ICR-CD-1 mice
[3] = tested on: brain parenchyma and capillaries; test: Capillary depletion method: brain parenchyma/capillary distribution; type: in vivo; conditions: capillary depletion, 10 min after IV injection of radiolabeled peptide (200 μl, 10000 cpm/μl), brain perfused with lactated Ringer's buffer, two ICR-CD-1 mice, gamma counter
Method: The capillary depletion method was used to evaluate the distribution of the peptide between the brain parenchyma and capillaries. In summary (see Materials and Methods in [45]), 200 μl of a radiolabeled peptide solution (10000 cpm/μl) was injected in the jugular externalis vein of two anesthetized ICR-CD-1 mice. Ten minutes after IV injection, mice were decapitated and brains were collected and measured for radioactivity. […] The resulting homogenate was weighed and centrifuged at 5400 g for 30 min at 4°C, resulting in a pellet, i.e. capillaries, and supernatant, i.e. parenchyma and fat tissue, which were weighed and measured in the gamma counter. […] Compartmental distribution was calculated as follows: Fractioncapillaries or parenchyma (%)=[…] or parenchyma/[…]×100 (4)

[4] = tested on: blood-brain barrier (BBB); test: Brain-to-blood transport (efflux) after intracerebroventricular injection; conditions: ICR-CD-1 mice
[5] = In vitro metabolic stability in mouse serum; type: in vitro ADME; conditions: mouse serum 500 μl + 400 μl Krebs-Henseleit buffer pH 7.4 + 100 μl 1 mg/ml peptide, 37°C, 750 rpm, sampling 0-120 min plus early points, HPLC-UV 215 nm, t1/2 = -ln(2)/slope
Method: as §1

[6] = In vitro metabolic stability in mouse brain homogenate; type: in vitro ADME; conditions: mouse brain homogenate 0.6 mg/ml protein (500 μl, 300 μg protein) + Krebs-Henseleit buffer pH 7.4, 0.1 mg/ml peptide, 37°C, 750 rpm, 0-120 min, HPLC-UV 215 nm
Method: as §1

[7] = tested on: blood-brain barrier (BBB); test: Multiple time regression (MTR) analysis, blood-to-brain influx; type: in vivo, ICR-CD-1 mice; conditions: whole brain, ± 65% confidence limits
[8] = In vitro metabolic stability in mouse liver homogenate; type: in vitro ADME; conditions: mouse liver homogenate 0.6 mg/ml protein (500 μl, 300 μg protein) + Krebs-Henseleit buffer pH 7.4, 0.1 mg/ml peptide, 37°C, 750 rpm, 0-120 min, HPLC-UV 215 nm
Method: as §1

[9] = tested on: blood-brain barrier (BBB); test: Classification of peptides according to their BBB influx; conditions: classification method of ref [61] applied to the measured influx
[10] = tested on: blood-brain barrier (BBB); test: Saturability of brain influx: MTR with and without excess unlabeled peptide; type: in vivo; conditions: no-carrier added radiolabeled peptide with and without 10 μg unlabeled peptide, IV, ICR-CD-1 mice; Kin not different, P > 0.05
Method: This dose of 20 μg was determined based on the amount of peptide injected during a MTR experiment estimated based on the specific activity and taking into account the amount of non-radioactively iodinated peptide present in the injected dose. […] During this experiment, peptides are radiolabeled using a no-carrier added method in order that only radioactively labeled peptide was injected.

TP10
Half-life, kidney [1]: 0.572 h
Difference in brain influx rates between the eight dissected brain regions [2]: no statistically significant difference
Parenchymal fraction [3]: 85%
kout (efflux transfer constant) ([4]; 1 μl radioiodinated peptide (25000 cpm/μl) in lateral ventricle, 1-15 min, slope of ln(brain activity) vs time): 0.09 ± 0.02 min⁻¹
t1/2,brain (half-time disappearance) ([4]; ln(2)/kout after intracerebroventricular injection): 8 min
Half-life, serum [5]: 21.93 h
Half-life, brain [6]: 2.932 h
Kin (unidirectional influx rate), linear Gjedde-Patlak model ([7]; 125I-radioiodinated peptide, IV jugular vein 200 μl (30000 cpm/μl), anesthetized female ICR-CD-1 mice, 1-15 min, brain/serum radioactivity (gamma counter) vs exposure time, pVEC, SynB3, TP10: two experiments fitted together): 0.05 µL/g/min and 0.05 ± 0.04 µL/g/min
Vi (initial brain distribution volume), linear Gjedde-Patlak model ([7]; 125I-radioiodinated, IV, ICR-CD-1 mice, MTR 1-15 min): 9.88 ± 0.66 µL/g
Half-life, liver [8]: 2.323 h
BBB influx class [9]: class 1
Saturability of the brain influx mechanism [10]: not saturable

From publication PMC4605843, “Cell-Penetrating Peptides Selectively Cross the Blood-Brain Barrier In Vivo” (PLoS ONE, 2015)
